Assays:
[1] = target: Metabotropic glutamate receptor 5 (Mus musculus, UniProt Q3UVX5); test: Positive allosteric modulator activity at mGluR5 in mouse BV2 cells assessed as inhibition of nitric oxide production pre-treated 1 hr before lipopolysaccharide stimulation and measured 24 hrs post lipopolysaccharide stimulation by Griess reagent assay; type: cell-based, BV-2
In short: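 BV2 microglia grown in DMEM plus 10% FBS at 37°C, 5% CO2. Pretreated 1 h with compound in 0.02% DMSO (final), then stimulated with LPS 50 ng/ml for 24 h. Read-out is supernatant nitrite by Griess reagent as a proxy for NO. IC50 is the mean of three independent experiments.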

The chains behind the UniProt entries cited, without tags or fusion partners.
UniProt Q3UVX5, whole entry: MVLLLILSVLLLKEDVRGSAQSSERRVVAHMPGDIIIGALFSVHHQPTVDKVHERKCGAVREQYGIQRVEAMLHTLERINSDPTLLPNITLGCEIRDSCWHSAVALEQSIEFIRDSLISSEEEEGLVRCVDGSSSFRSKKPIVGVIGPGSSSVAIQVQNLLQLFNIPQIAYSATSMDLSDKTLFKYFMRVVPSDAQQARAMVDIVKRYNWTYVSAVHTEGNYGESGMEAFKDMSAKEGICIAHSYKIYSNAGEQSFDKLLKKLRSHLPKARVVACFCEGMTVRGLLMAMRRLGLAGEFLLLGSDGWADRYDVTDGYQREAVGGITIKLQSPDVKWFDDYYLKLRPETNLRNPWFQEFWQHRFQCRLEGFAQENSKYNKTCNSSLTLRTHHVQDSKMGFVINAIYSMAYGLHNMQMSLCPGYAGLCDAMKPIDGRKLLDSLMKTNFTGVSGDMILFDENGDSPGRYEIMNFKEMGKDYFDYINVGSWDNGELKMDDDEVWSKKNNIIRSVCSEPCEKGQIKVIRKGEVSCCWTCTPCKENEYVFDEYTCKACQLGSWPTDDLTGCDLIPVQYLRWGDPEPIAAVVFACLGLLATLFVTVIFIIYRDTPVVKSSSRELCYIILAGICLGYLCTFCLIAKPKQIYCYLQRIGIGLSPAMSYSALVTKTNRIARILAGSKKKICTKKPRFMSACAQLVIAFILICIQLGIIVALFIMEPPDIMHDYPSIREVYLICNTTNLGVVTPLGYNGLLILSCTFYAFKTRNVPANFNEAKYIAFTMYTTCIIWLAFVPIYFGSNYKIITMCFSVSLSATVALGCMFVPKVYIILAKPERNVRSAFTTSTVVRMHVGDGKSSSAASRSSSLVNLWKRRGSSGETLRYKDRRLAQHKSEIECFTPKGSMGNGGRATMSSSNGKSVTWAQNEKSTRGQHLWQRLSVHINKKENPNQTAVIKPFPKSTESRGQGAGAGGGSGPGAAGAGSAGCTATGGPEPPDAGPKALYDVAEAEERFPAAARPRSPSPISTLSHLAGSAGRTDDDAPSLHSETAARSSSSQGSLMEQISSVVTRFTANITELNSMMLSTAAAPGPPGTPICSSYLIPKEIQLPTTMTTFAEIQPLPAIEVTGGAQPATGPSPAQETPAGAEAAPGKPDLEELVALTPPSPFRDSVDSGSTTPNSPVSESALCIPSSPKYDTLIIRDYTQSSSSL

[2] = Selectivity index, ratio of MNCC against mouse BV2 cells to IC50 for mGluR5 in mouse BV2 cells; type: functional, BV-2

IC50 [1] [µM]	Compound	Selectivity Index [2]
49	O=C(Nc1nc2ccccc2[nH]1)c1ccncc1	20.2
	O=C(Nc1nc2ccccc2[nH]1)c1cccc([N+](=O)[O-])c1	34.6
